Assay results as given in article PMC11124870, “Effect of Antioxidants in Medicinal Products on Intestinal Drug Transporters” (Pharmaceutics, 2024).

Sequences of proteins named here, by UniProt entry; tags and fusion partners are left off. A change or cut given only in a name is not applied to a line headed by its entry.
UniProt O94956: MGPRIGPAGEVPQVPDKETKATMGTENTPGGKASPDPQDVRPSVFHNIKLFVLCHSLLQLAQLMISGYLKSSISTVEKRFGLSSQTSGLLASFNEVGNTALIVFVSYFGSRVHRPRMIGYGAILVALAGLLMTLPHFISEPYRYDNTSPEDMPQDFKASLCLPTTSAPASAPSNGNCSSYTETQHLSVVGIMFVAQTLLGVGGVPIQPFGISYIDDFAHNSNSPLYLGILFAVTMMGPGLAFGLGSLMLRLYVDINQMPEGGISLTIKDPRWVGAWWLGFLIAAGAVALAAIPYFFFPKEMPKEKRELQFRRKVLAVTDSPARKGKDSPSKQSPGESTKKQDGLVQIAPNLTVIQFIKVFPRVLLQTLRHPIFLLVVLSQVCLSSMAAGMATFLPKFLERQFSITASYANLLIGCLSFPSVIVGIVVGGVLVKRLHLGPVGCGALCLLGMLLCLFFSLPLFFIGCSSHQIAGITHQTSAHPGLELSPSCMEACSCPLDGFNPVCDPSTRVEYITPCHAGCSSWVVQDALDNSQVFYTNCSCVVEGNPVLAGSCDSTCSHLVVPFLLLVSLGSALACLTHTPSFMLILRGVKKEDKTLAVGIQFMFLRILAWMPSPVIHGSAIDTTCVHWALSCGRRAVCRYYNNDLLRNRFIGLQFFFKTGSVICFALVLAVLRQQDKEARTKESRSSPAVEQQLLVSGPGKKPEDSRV

Molecular target: OATP2B1 (Homo sapiens, UniProt O94956)
Assay: Uptake transporter assay, 3H-estrone sulfate uptake in HEK-293-OATP2B1 cells
Conditions: antioxidant 200 µM, uptake with DMSO set as 100%, mean ± SD, three replicates

- % Uptake of 3H-ES OATP2B1: 10.5 ± 2.8%
Compound: C#Cc1cccc(Nc2ncnc3cc(OCCOC)c(OCCOC)cc23)c1 [Erlotinib, reference compound]
